Patent publication US20040171533A1, “Methods and compositions for regulating adiopocytes” (priority 2000, published 2004)

Experiments:
Format in all cases: cell-based, mouse
[1] = tested on: PPAR-γ expression in C3H10T1/2 cells; test: Quantitative competitive RT-PCR of adipocyte marker PPAR-γ in C3H10T1/2 cells; details: normalized with actin
Description: (§1) Mouse fibroblast C3H10T1/2 cells (ATCC CCL 226) were grown as monolayers in DMEM with 10% fetal calf serum (Cansera, Greiner GmbH, Frickenhausen, Germany) at 37° C. in a 5% CO2 atmosphere. Treatment with BMP-2, Shh or a combination of both was done for 72 h under serumfree conditions or for 11 days in the presence of 10% FCS. The medium with inducers was changed twice a week.
(§2) BMP-2 was provided by W. Sebald, Würzburg, Germany, and used at a concentration of 500 ng/ml. […]
(§3) RNA was isolated using the High Pure RNA Isolation Kit (Roche Molecular Biochemicals Cat. No. 1 828 665). RNA quantity was determined by measuring absorption at 260 nm, and quality was checked in an agarose gel.
(§4) PPAR-γ, aP2, gli, ptc and actin mRNAs were quantitated via competitive RT-PCR using a multigene standard (Gilliland et al., 1990). […]
(§5) After linearization the standard vector was transcribed with T7 RNA polymerase into standard cRNA and treated with DNase I. 0.5 μg cellular RNA and different concentrations of standard cRNA were combined and reverse transcribed. […] PCR propducts were analyzed by gel electrophoresis with ethidium bromide staining.
(§6) In order to quantitate the PCR products resulting from competitive RT-PCR the intensity of the bands in the gel was measured with the gel imaging system E.A.S.Y. (Herolab GmbH, Wiesloch, Germany). […]

[2] = tested on: gli expression in C3H10T1/2 cells; test: Quantitative competitive RT-PCR of hedgehog responsive gene gli in C3H10T1/2 cells
Description: as §1, §2, §3, §4, §5, §6

[3] = tested on: aP2 expression in C3H10T1/2 cells; test: Quantitative competitive RT-PCR of adipocyte marker aP2 in C3H10T1/2 cells; details: normalized with actin
Description: as §1, §2, §3, §4, §5, §6

[4] = tested on: ptc expression in C3H10T1/2 cells; test: Quantitative competitive RT-PCR of hedgehog receptor patched (ptc) in C3H10T1/2 cells
Description: as §1, §2, §3, §4, §5, §6

C3H10T1/2 cells = test: Oil Red O staining of C3H10T1/2 cells (adipocyte-like phenotype); details: 11 days of treatment with FCS
Description: as §1
BMP-2 was provided by W. Sebald, Würzburg, Germany, and used at a concentration of 500 ng/ml. Human sonic hedgehog protein was derived from baculovirus-mediated expression in insect cells and applied to cells as described previously (Zehentner et al., 1999) The baculovirus supernatants containing approximately 20 μg/ml hedgehog protein were diluted 1:40 (v/v) in the assay. For RT-PCR the experiment was stopped with lysis buffer (4.5 M guanidin hydrochloride, 50 mM Tris-HCl, 30% TritonX-100 (w/v), pH 6.6) after 72 h. The cell lysate was stored at −80° C. until RNA extraction.
The stock solution of Oil Red O was prepared by dissolving 4.2 g of Oil Red O (Sigma-Aldrich Chemie GmbH, Deisenhofen, Germany) in 1200 ml isopropanol. The solution was left overnight at room temperature without stirring followed by filtration. At last 900 ml of water was added and solution was left overnight at 4° C. with stirring.
Cultures were fixed for 5 h with 4% paraformaldehyde in isotonic phosphate buffer. […]

[5] = 72 h serumfree culture, BMP-2 500 ng/ml, Shh supernatant 1:40

B1: Bone morphogenic protein-2 (protein, UniProt P12643 283-396, looked up)
Bone morphogenetic protein 2: QAKHKQRKRLKSSCKRHPLYVDFSDVGWNDWIVAPPGYHAFYCHGECPFPLADHLNSTNHAIVQTLVNSVNSKIPKACCVPTELSAISMLYLDENEKVVLKNYQDMVVEGCGCR
notes: Bone morphogenic protein-2, provided by W. Sebald, used at a concentration of 500 ng/ml
In the case of B1, the “PPAR-γ expression, relative expression level in comparison to untreated cells” value [1, 5] is reported as 3.5 fold, the “PPAR-γ expression, relative expression level in comparison to untreated cells” value ([1]; 11 days with 10% FCS) is reported as 2.5 fold and the “gli expression, increase compared to the untreated control” value ([2]; 72 h serumfree) is reported as 3 fold. For the same molecule, the “gli expression, increase compared to the untreated control” value ([2]; 11 days in the presence of serum) was “no effect”, the “aP2 expression, relative expression level in comparison to untreated cells” value [3, 5] was 3 fold and the “aP2 expression, relative expression level in comparison to untreated cells” value ([3]; 11 days with 10% FCS) was 2.1 fold. The “patched relative expression level increased by factor” value ([4]; 72 h serumfree) was 0.5 factor, the “patched (ptc) mRNA expression, increase” value ([4]; 11 days with serum) was “no increase” and the “Oil Red O staining / lipid vesicles, adipocyte phenotype” value (C3H10T1/2 cells) was “a significant amount of cells acquired the rounded shape of mature adipocytes”.
